Measured values taken from ChEMBL document CHEMBL1128495, “Synthetic chemical diversity: solid phase synthesis of libraries of C2 symmetric inhibitors of HIV protease containing diamino diol and diamino alcohol cores” (J Med Chem, 1995).

Target: Human immunodeficiency virus type 1 protease (Human immunodeficiency virus 1, UniProt Q72874)
Test: Inhibition of HIV protease
How it was run: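 Fluorometric HIV protease activity assay on unpurified samples. Concentrations were calculated from the weight of unpurified material, with no correction for impurities. Each sample was tested at 3–5 concentrations where feasible, and IC50 was derived from the percent-inhibition data.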

SMILES	IC50 [nM]
COc1cc(CC(=O)N[C@H](C(=O)N[C@@H](Cc2ccccc2)[C@@H](O)[C@H](O)[C@H](Cc2ccccc2)NC(=O)[C@@H](NC(=O)Cc2cc(OC)c(OC)c(OC)c2)C(C)C)C(C)C)cc(OC)c1OC	3.4
CC(C)[C@H](NC(=O)CSc1ncccn1)C(=O)N[C@@H](Cc1ccccc1)[C@@H](O)[C@H](O)[C@H](Cc1ccccc1)NC(=O)[C@@H](NC(=O)CSc1ncccn1)C(C)C	16
